These results are taken from patent publication US6255347A, “Methods and compositions comprising R-ibuprofen” (priority 1997, dated 2001).

For one series, the target named is T1, PKC (Rattus norvegicus, UniProt P05696).
T1 construct: Partially purified PKCα from rat brain; purchased Promega (Madison, Wis.); host or cells: rat brain (tissue enzyme, partially purified)
The series is described as follows: Protein kinase C activity assay (histone phosphorylation, partially purified rat brain PKC). In kind it is biochemical. The conditions noted are these: summary statement. The method, then: (-)-R-ibuprofen and (+)-S-ibuprofen (optical purity >99%) were obtained from Sepracor Inc. (Marlborough, Mass.). The following were obtained from the Sigma Chemical Co. (St. […] Anti-PKCα antibody (affinity purified) and its C-terminal region peptide was obtained from Life Technologies (Gaithersburg, Md.). […] All other chemicals were of the highest available purity and were obtained from standard commercial sources. The assay for PKC activity was carried out essentially as described by Boyle et al.(1991) by quantifying the phosphorylation of histone in the presence of phoshatidylserine and PMA, with or without ibuprofen. […] Following 2 min initial incubation at 30° C., kinase reactions were initiated by the addition of ^32 P-γ-ATP and enzyme and continued at 30° C. for 2 min. Control incubations contained all assay components except enzyme and ibuprofen. […] All samples were carried out in duplicate.

For series [1] the following is noted: in vivo; cited from earlier work.

On to `CC(C)Cc1ccc(C(C)C(=O)O)cc1` (racemic) [RS-ibuprofen], for which the “direct inhibition of PKC-mediated phosphorylation” value (shortened to “direct inhibition”) at PKC is “≈ 60%”. For `CC(C)Cc1ccc([C@@H](C)C(=O)O)cc1` [R-ibuprofen], the “direct inhibition” value at PKC was “≈ 60%”. As for `CC(C)Cc1ccc([C@H](C)C(=O)O)cc1` [S-ibuprofen], the “direct inhibition” value on PKC is reported as “≈ 60%”. Regarding `CC[C@]1(O)C[C@H]2CN(CCc3c([nH]c4ccccc34)[C@@](C(=O)OC)(c3cc4c(cc3OC)N(C=O)[C@H]3[C@@](O)(C(=O)OC)[C@H](OC(C)=O)[C@]5(CC)C=CCN6CC[C@]43[C@@H]65)C2)C1` [Vincristine], the terminal half-life entry in series [1] was “about 24 hours”.
